According to patent publication US10233209B2, “Inhibitors of the farnesoid x receptor and uses in medicine” (The United States of America, as represented by the …, priority 2013, dated 2019):

Biological target: T1, FXR (Homo sapiens, UniProt Q96RI1)
T1 sequence (Q96RI1 1-486): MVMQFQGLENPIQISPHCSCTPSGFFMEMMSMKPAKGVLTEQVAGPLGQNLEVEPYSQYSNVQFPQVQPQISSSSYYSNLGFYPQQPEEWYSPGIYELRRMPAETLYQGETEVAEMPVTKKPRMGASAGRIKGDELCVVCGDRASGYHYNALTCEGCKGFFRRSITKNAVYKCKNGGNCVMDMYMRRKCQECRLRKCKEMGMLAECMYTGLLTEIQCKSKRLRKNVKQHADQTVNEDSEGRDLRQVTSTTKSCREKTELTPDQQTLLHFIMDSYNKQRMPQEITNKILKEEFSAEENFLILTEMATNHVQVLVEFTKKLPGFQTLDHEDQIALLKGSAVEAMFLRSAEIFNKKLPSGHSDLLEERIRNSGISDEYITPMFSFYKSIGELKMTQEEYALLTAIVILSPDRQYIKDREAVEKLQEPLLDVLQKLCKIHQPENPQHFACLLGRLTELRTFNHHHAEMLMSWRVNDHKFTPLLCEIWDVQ
Assay: FXR target gene mRNA expression in differentiated Caco-2 cells
Format: cell-based
Set-up: host or cells: differentiated Caco-2
Details: for expression of FXR target gene Fgf19 mRNA / expression of FXR target gene Shp mRNA: GW4064 2 μM and 5 μM; for Atp5g mRNA expression: GW4064 treatment

expression of FXR target gene Fgf19 mRNA: induced
expression of FXR target gene Shp mRNA: induced
expression of FXR target gene Fgf19 mRNA (listed as Gw4064): induced expression
expression of FXR target gene Shp mRNA (listed as Gw4064): induced expression
Atp5g mRNA expression: inhibited expression
Atp5g mRNA expression (listed as Gw4064): inhibited Atp5g mRNA expression
Structure (SMILES): CC(C)c1onc(-c2c(Cl)cccc2Cl)c1COc1ccc(/C=C/c2cccc(C(=O)O)c2)c(Cl)c1 [GW4064]
